Measured values as given in ChEMBL document CHEMBL4024719, “Recent progress in the identification of selective butyrylcholinesterase inhibitors for Alzheimer's disease” (Eur J Med Chem, 2017).

Species on record: Homo sapiens
Experiment: Selectivity ratio of IC50 for AChE (unknown origin) to IC50 for BuChE (unknown origin)

CN(C)C(=O)Oc1cc(OC(=O)N(C)C)cc(C(O)CNC(C)(C)C)c1 (stereo unspecified)
Ratio IC50: 10000
